This note sets out measurements from paper PMC11619344 (Antimicrobial Agents and Chemotherapy, 2024).

Common to all, as to assay: IC50, nitrocefin hydrolysis, crude extract
Common to all, as to type: biochemical

In one assay the target is T1, KPC-31 (KPC-3 D179Y) (Klebsiella pneumoniae, UniProt Q9F663, D178Y/H272Y).
T1 construct: made in house; host or cells: E. coli HB4 (porin-deficient), plasmid pUCP24
As to conditions: ESBL phenotype, 10 min preincubation.

The next assay deals with T2, KPC-3 (Klebsiella pneumoniae, UniProt Q9F663, H272Y).
T2 construct: made in house; host or cells: E. coli HB4 (porin-deficient), plasmid pUCP24
As to conditions: KPC-3, carbapenemase phenotype, 10 min preincubation.

The next assay deals with T3, KPC-3 D179N (Klebsiella pneumoniae, UniProt Q9F663, D178N/H272Y).
T3 construct: made in house; host or cells: E. coli HB4 (porin-deficient), plasmid pUCP24
As to conditions: ESBL phenotype, 10 min preincubation.

Another assay concerns the target T4, KPC-35 (KPC-2 L169P) (Klebsiella pneumoniae, UniProt Q9F663, L168P).
T4 construct: made in house; host or cells: E. coli HB4 (porin-deficient), plasmid pUCP24
The note with it: ESBL phenotype, 10 min preincubation.

The next assay addresses T5, KPC-2 (Klebsiella pneumoniae, UniProt Q9F663).
T5 construct: made in house; host or cells: E. coli HB4 (porin-deficient), plasmid pUCP24

The target of another assay is T6, KPC-2 L169A (Klebsiella pneumoniae, UniProt Q9F663, L168A).
T6 construct: made in house; host or cells: E. coli HB4 (porin-deficient), plasmid pUCP24
The note with it: carbapenemase phenotype, 10 min preincubation.

The target in the next assay is T7, KPC-2 L169T (Klebsiella pneumoniae, UniProt Q9F663, L168T).
T7 construct: made in house; host or cells: E. coli HB4 (porin-deficient), plasmid pUCP24
As to conditions: carbapenemase phenotype, 10 min preincubation.

For orientation: IC50 means the concentration that gives 50% inhibition. A higher IC50 goes with lower potency. Regarding `O=C(NC1CCNCC1)[C@@H]1CC[C@@H]2CN1C(=O)N2OS(=O)(=O)O` [REL, relebactam], the IC50 on KPC-31 (KPC-3 D179Y) amounted to 30 nM; at KPC-3, 70 nM; on KPC-3 D179N, 50 nM; on KPC-35 (KPC-2 L169P) it was 300 nM; at KPC-2, 30 nM; on KPC-2 L169A, 100 nM. Half-maximal inhibition against KPC-2 L169T (IC50) required 40 nM.
